This passage reports Solubility in water results from US7163589B2 (priority 2001, dated 2007).

This data set can be described thus: Solubility of water in solvent, solvent in water; solubility in water. The class given is physicochemical. The settings on record: in words.

For `CCCCOC(=O)CC(O)(CC(=O)OCCCC)C(=O)OCCCC`, the Solubility in water entry is given as “water insoluble”.
